{"source": "patent US11045453B1", "about": "(priority 2020, dated 2021)", "test_system": "human bronchial epithelial cells (HBEC)", "data": [{"substance": "4-[[4-[(Aminoiminomethyl)amino]benzoyl]oxy] benzeneacetic acid 2-(dimethylamino)-2-oxoethyl ester methanesulfonate [camostat, reference compound]", "values": [{"measurement": "cell viability / cytotoxicity, LDH release", "result": "without significant compromise to cell viability"}]}]}
